Reference: US20250313569A1, “Pharmaceutical Compounds And Compositions As Modulators Of MAS-Related G-Protein Receptor X2” (Enanta Pharmaceuticals, Inc., priority 2024, published 2025)

Protein sequences, listed by entry. Tags and fused reporters are not part of them.
UniProt Q96LB1, whole entry: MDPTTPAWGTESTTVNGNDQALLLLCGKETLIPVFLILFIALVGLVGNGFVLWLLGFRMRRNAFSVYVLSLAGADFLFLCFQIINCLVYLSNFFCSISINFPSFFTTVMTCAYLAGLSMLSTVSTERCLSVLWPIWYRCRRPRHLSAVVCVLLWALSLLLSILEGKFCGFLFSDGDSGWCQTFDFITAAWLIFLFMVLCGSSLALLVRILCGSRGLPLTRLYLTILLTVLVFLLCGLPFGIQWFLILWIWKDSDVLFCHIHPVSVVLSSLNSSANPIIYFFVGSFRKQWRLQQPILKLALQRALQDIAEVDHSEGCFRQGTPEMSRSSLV

What was measured:
[1] = target: MRGPRX2 LAD2 (Homo sapiens, UniProt Q96LB1); assay: LAD2 β-hexosaminidase release assay (degranulation), Cortistatin-14 at EC75; conditions: read-out: MRGPRX2 LAD2 EC50; LAD2 cells; 1 hour compound incubation, Cortistatin-14 at EC75 for 30 minutes; percent degranulation (β-hexosaminidase)
Description: LAD2 cells obtained from the NIH were cultured in StemPro34 (Gibco) serum-free media supplemented with GlutaMax, penicillin and streptomycin, and 100 ng/mL SCF (Invitrogen). Cells were maintained in a 37° C., 5% CO2 humidified incubator at a concentration of 2-5E5 cells/mL, with hemidepletion once a week.
One day prior to the assay, cells were starved of SCF at a concentration of 2.3E5 cells/mL. On the day of the assay cells were washed twice in Tyrode's Buffer containing 0.04% BSA (assay buffer) and plated in a 96 well-v-bottom assay plate at 20,000 cells per well in 80 μL of assay buffer. Compounds were solubilized at 10 mM DMSO and added as a 10-fold overconcentrated 8-point curve in assay buffer in a volume of 10 μL using the JANUS liquid handler. Assay plates were incubated for 1 hour at 37° C. Cortistatin-14 was diluted in assay buffer to […] its predetermined EC75 and added to the assay plates in a volume of 10 μL. Assay plates were incubated at 37° C. for 30 minutes. […] The plates were read on a Perkin Elmer Envision plate reader at an Abs of 405 nanometers. Percent degranulation was calculated and Xlfit was used to calculate an EC50 value for each compound using a 4-parameter logistic curve fitting model. […]

[2] = target: human MRGPRX2 (Homo sapiens, UniProt Q96LB1); assay: MRGPRX2 IP-1 Gq HTRF assay in HEK293 cells stably expressing human MRGPRX2, Cortistatin-14 at EC75; conditions: read-out: MRGPRX2 IP-1 Gq HTRF EC50, 2 hours at 37° C., cellular IP-1
Description: HEK293 cells stably expressing human MRGPRX2 were grown in Dulbecco's Modified Eagle Medium (DMEM) supplemented with 10% fetal bovine serum (FBS), 1% Glutamax, and 1 μg/mL of puromycin. Cells were maintained in a 37° C., 5% CO2 humidified incubator.
Cells were plated in a 384-well assay plate at a density of 20,000 cells per well overnight. Compounds were solubilized at 10 mM in DMSO and added as a 10-point curve using an ECHO acoustic liquid handler. On the day of the assay, Cortistatin-14 was diluted in assay buffer (provided by IP-One-Gq-HTRF kit purchased from Cisbio, 62IPAPEJ) and added to the assay plate at a final concentration corresponding to the predetermined EC75. Plates were incubated at 37° C. for 2 hours prior to addition of HTRF detection reagents per the manufacturer's instructions. The plates were read on a Perkin Elmer Envision plate reader. The HTRF ratio and cellular IP-1 levels were calculated. XLfit was used to calculate an EC50 value for each compound using a 4-parameter logistic curve fitting model. EC50 ranges are reported as follows: A<100 nM; B 0.1-1 μM; C>1 μM.

| SMILES | EC50 [1] [nM] | EC50 [2] [nM] |
| --- | --- | --- |
| O=C(N[C@H]1C[C@@H](Nc2cc(C(F)(F)F)nc3ccc(Cl)cc23)CN(C(=O)C(F)F)C1)c1cn(C[C@H](O)C(F)(F)F)nc1Cl | < 100 |  |
| CS(=O)(=O)Nc1cccc(C(=O)N[C@H]2C[C@@H](Nc3cc(C(F)(F)F)nc4ccc(Cl)cc34)CN(CC(F)(F)F)C2)c1 |  | < 100 |
